# Laboratory results from article PMC11524583, “Neurons enhance blood–brain barrier function via upregulating claudin-5 and VE-cadherin expression due to glial cell line-derived neurotrophic factor secretion” (eLife, 2024).
# Read-outs that look alike come from different tables or passages of the source.
# How the values were obtained:
# [1] = tested on: hCMEC/D3 mono-culture BBB model
# in vitro [2] = settings: human
# in vitro [3] = settings: human; remark: listed apart in the source
# [4] = tested on: triple co-culture BBB model (hCMEC/D3, U251 and SH-SY5Y cells); settings: human
compound,measurement,setting,value
CN(C)CCC=C1c2ccccc2CCc2ccccc21 [Amitriptyline],Papp A→B,"[1]; human, 30 min",143 nm/s
NCC1(CC(=O)O)CCCCC1 [Gabapentin],Papp A→B,"in vitro [2]; Papp, Mono, apical to basolateral, 30 min, 37°C, day 6, mean ± SEM, four biological replicates",168 ± 16.2 nm/s
CN(C)CCC=C1c2ccccc2COc2ccccc21 [Doxepin],Papp A→B,"[1]; human, 30 min",143 nm/s
same,Papp A→B at 30 min,in vitro [3]; Papp Mean,107 nm/s
same,Papp A→B at 30 min,"in vitro [3]; Papp, Triple",107 ± 9.2 nm/s
CCN(CC)CCNC(=O)c1cc(Cl)c(N)cc1OC [Metoclopramide],Papp A→B,"[1]; human, 30 min",143 nm/s
same,Papp A→B,[4]; 30 min,65.1 nm/s
same,Papp A→B at 30 min,"in vitro [3]; Papp, Triple",66.3 ± 4.2 nm/s
CC(NC(C)(C)C)C(=O)c1cccc(Cl)c1 (centres unmarked) [Buproprion],Papp A→B,[1],156 nm/s
Cc1cc2c(s1)Nc1ccccc1N=C2N1CCN(C)CC1 [Olanzapine],"PSPre, Mono",[1]; human,6064.41 µL/min/g
same,PS,"[1]; human, 30 min",6064.41 µL/min/g
same,"PSPre, Triple",[4],3306.18 µL/min/g
same,PS,[4]; 30 min,3306.18 µL/min/g
same,Papp A→B at 30 min,in vitro [2]; Papp Mean,229 nm/s
same,Papp A→B at 30 min,"in vitro [2]; Papp, Mono",229 ± 38 nm/s
Cc1nc2n(c(=O)c1CCN1CCC(c3noc4cc(F)ccc34)CC1)CCCC2 [Risperidone],"PSPre, Mono",[1]; human,1463.64 µL/min/g
same,PS,"[1]; human, 30 min",1463.64 µL/min/g
same,"PSPre, Triple",[4],1063.64 µL/min/g
same,PS,[4]; 30 min,1063.64 µL/min/g
same,Papp A→B at 30 min,"in vitro [2]; Papp, Mono",161 ± 28.7 nm/s
same,Papp A→B at 30 min,in vitro [3]; Papp (individual replicate),126 nm/s
same,Papp A→B at 30 min,"in vitro [3]; Papp, Triple",117 ± 2.5 nm/s
NC12CC3CC(CC(C3)C1)C2 [Amantadine],Papp A→B,"[1]; human, 30 min",54.4 nm/s
